These are literature values, as cited in paper PMC5708649, “A novel Porphyromonas gingivalis enzyme: An atypical dipeptidyl peptidase III with an ARM repeat domain” (PLoS ONE, 2017).

Each structure is given as a SMILES string. Where a SMILES comes first, the peptide text is derived from it. The star is where a group is joined. βNA = c1ccc2cc(N*)ccc2c1

In the series the target is T1, human DPP III (Homo sapiens, UniProt Q9NY33).
T1 sequence (Q9NY33 1-737): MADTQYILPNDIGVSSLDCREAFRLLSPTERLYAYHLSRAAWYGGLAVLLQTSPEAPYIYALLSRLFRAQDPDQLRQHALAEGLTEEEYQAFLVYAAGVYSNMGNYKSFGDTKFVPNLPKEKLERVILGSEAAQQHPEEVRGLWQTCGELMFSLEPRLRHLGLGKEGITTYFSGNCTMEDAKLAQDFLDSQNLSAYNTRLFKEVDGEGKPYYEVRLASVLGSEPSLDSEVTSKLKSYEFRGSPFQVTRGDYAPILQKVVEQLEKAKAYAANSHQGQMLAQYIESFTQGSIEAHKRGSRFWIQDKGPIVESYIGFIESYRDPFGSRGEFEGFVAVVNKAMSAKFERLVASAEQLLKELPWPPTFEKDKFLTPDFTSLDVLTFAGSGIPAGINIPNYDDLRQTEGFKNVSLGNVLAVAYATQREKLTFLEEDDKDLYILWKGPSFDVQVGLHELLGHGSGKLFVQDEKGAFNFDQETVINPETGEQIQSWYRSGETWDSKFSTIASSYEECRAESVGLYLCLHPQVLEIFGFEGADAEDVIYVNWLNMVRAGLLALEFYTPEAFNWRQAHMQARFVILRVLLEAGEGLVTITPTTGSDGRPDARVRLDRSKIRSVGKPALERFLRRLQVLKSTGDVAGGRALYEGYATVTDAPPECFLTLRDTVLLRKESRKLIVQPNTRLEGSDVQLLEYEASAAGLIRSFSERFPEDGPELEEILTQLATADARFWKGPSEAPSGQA
The note with it: difference entirely on account of Km; cited from earlier work.

`N=C(N)NCCC[C@H](NC(=O)[C@@H](N)CCCNC(=N)N)C(=O)Nc1ccc2ccccc2c1` [Arg-Arg-2NA, Arg-Arg-2-naphthylamide] (H-Arg-Arg-βNA): the “substrate preference of human DPP III (in words)” value was “prefers Arg2-2NA over Arg2-AMC”.
